62 compounds from PubChem BioAssay AID2101 (National Center for Advancing Translational Sciences (NCATS), 2009) can be followed below.

Only a part is listed here, and it is no random draw. Results filed as inconclusive are left out. The source made the active and inactive calls. Calls come from the whole dose curve; as a rule, active = well fitted inhibition curve with a large enough effect; inconclusive = small, poorly fitted or top-dose-only effect, or effect the other way, or another doubt; inactive = no such curve, though single readings can be large or run the other way.

In the test the target is Lysosomal acid glucosylceramidase (Homo sapiens) (UniProt P04062). The test is described as follows: qHTS Assay for Inhibitors and Activators of N370S glucocerebrosidase as a Potential Chaperone Treatment of Gaucher Disease.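 Note: 0% = full enzyme activity and -100% = no enzyme basal.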 Particulars: N370S GC spleen homogenate, 4MU-glucoside fluorescence; at 59.4 µM (top of the series) unless noted. An excerpt:
NIH Chemical Genomics Center [NCGC]
NIH Molecular Libraries Probe Production Centers Network [MLPCN]
Assay Submitter (PI): Wei Zheng
Glucocerebrosidase (GC) catalyzes the hydrolysis of beta-glucocerebroside to glucose and ceramide in lysosomes. Mutations in the glucocerebrosidase gene result in Gaucher disease, an autosomal recessive lysosomal storage disorder. Many of the mutations encountered in patients with Gaucher disease are missense alterations that may cause misfolding, decreased stability and/or mistrafficking of this lysosomal protein. […] These inhibitors include iminosugar analogs and three non-iminosugar inhibitors identified from a previous HTS of 62,000 compounds with the wild type recombinant enzyme. However, the enhancement of enzyme activity by the chaperone action of an enzyme inhibitor must be balanced against the direct inhibition of the enzyme. An enzyme activator could also function as a chaperone by binding to the enzyme and helping to correct its misfolding and mistrafficking. While activators for GC have not yet been identified, they may have better therapeutic potential than inhibitors. Therefore the discovery and development of chemical activators may provide a new strategy for the chaperone therapy.
We have optimized a new assay using N370S mutant GC derived from the spleen of a Gaucher patient. […] In addition, the MLPCN compound library has expanded, which increases the chance of finding new and better probes.
NCGC Assay Protocol Summary:
This is a fluorogenic enzyme assay with 4-methylumbelliferyl-beta-D-glucopyranoside as the substrate and N370S glucocerebrosidase from human spleen homogenate as the enzyme preparation. Upon the hydrolysis of this fluorogenic substrate, the resulting product, […] which can be detected by a standard fluorescence plate reader. Data were normalized to the controls for basal activity (without enzyme) and 100% activity (with enzyme). The AC50 values were determined from concentration-response data modeled with the standard Hill equation.
Assay buffer: 50 mM citric acid (titrated with potassium phosphate to pH 5.0), 100 mM potassium chloride, 10 mM sodium chloride, 1 mM magnesium chloride, 0.01% Tween-20.
1536-well assay protocol:
(1) Add 2 ul/well of spleen homogenate (27 ug final)
(2) Add 23 nL compounds in DMSO solution. The final titration was 0.5 nM to 58 uM.
(3) Add 2 ul of substrate (1 mM final)
(4) Incubate at 37C for 40 min.
(5) Add 2 ul stop solution (1M NaOH and 1M Glycine mixture, pH 10)
(6) Detect the assay plate in a ViewLux plate reader (PerkinElmer) with Ex=365 nm and Em=440nm.
Keywords: Glucocerebrosidase, beta-glucosidase, Gaucher Disease, pharmacological chaperone, chaperone therapy, high throughput screening, glucocerebrosidase inhibitor, MLSMR, MLSCN, NIH Roadmap, qHTS and NCGC
A general note: Quantitative high-throughput screening tests each substance at several concentrations.
Turning to `CCOC(=O)c1ccc(NP(C)(=O)Oc2ccc(OC)cc2)cc1` (configuration not stated), the activity change, negative = inhibition is inactive: 0.538%.
As for `CCOP(C)(=S)SCC(=O)NC(C)C(=O)O` (configuration not stated), the activity change, negative = inhibition is inactive: -5.83%.
For `CP(=O)(Nc1ccccn1)Oc1ccc(Cl)cc1` (configuration not stated) the value was inactive: 5.89%; for `CP(=O)(Nc1ccc(SC(F)(F)F)cc1)Oc1ccc(Cl)cc1` (configuration not stated), inactive: 6.05%; for `Cc1cccc(C)c1OP(C)(=O)Nc1ccc(SC(F)(F)F)cc1` (configuration not stated), inactive: -10.9%.
The same measure for `CP(=O)(Oc1ccccc1)OC(c1ccccc1)C(F)(F)F` (configuration not stated): inactive: -2.02%; for `CP(=O)(NC(=O)Nc1ccccc1)Oc1ccccc1` (configuration not stated): inactive: -5.29%; for `CCc1ccc(OP(C)(=O)N2CCN(c3ccc([N+](=O)[O-])cc3)CC2)cc1` (configuration not stated): inactive: -18.5%.
For `Cc1cc(C)cc(OP(C)(=O)Nc2ccc(SC(F)(F)F)cc2)c1` (configuration not stated) the value was inactive: 10.8%.
On to `CP(=S)(Nn1cnnc1)Oc1ccccc1` (configuration not stated), for which the activity change, negative = inhibition is inactive: -0.611%.
The same measure for `CP(=O)(Nc1ccccc1Br)Oc1ccccc1` (configuration not stated): inactive: 5.61%; for `COc1ccccc1OP(C)(=O)Nc1ccccc1` (configuration not stated): inactive: -1.73%; for `COc1ccccc1OP(C)(=O)Nc1ccc(C)cc1` (configuration not stated): inactive: 4.46%.
With `Cc1ccc(NP(C)(=O)Oc2ccccc2)c(C)c1` (configuration not stated), the activity change, negative = inhibition is inactive: 29%.
For `CCOC(=O)c1ccc(NP(C)(=O)Oc2ccccc2)cc1` (configuration not stated) the value was inactive: 12.4%; for `Cc1cc(C)cc(OP(C)(N)=O)c1` (configuration not stated), inactive: 10.3%.
For `COc1ccccc1OP(C)(=O)Nc1cc(Cl)ccc1C` (configuration not stated) the value was inactive: -0.343%; for `COc1ccc(OP(C)(=O)Nc2cccc(F)c2)cc1` (configuration not stated), inactive: 5.9%; for `O=C(O)C1(O)c2ccccc2-c2ccccc21`, inactive: -0.309%.
The same measure for `O=[N+]([O-])c1cc([N+](=O)[O-])c(Nc2cccnc2)c([N+](=O)[O-])c1`: inactive: -15.5%.
Consider `O=[N+]([O-])c1ccc2c(c1)C=Nc1ccccc1O2`, for which the activity change, negative = inhibition was inactive: -2.48%.
As to `CC(C)(C)c1ccc(OP(C)(=O)Nc2ccc(SC(F)(F)F)cc2)cc1` (configuration not stated), the activity change, negative = inhibition was inactive: 24.2%.
For `Cc1cccc(C)c1OP(C)(N)=O` (configuration not stated) the value was inactive: 1.46%.
For `O=C(O)C(O)(c1ccccc1)c1ccccc1` the value was inactive: -6.16%; for `O=[N+]([O-])[O-].[NH4+]`, inactive: 10.2%.
The same measure for `CCN(CC)CCCOC(=O)C(O)(c1ccccc1)c1ccccc1`: inactive: -15.7%; for `Cc1ccc(C)c(NP(C)(=O)Oc2ccccc2)c1` (configuration not stated): inactive: 0.464%.
`Cc1cc(C)cc(OP(C)(=O)Nc2ccccn2)c1` (configuration not stated): the activity change, negative = inhibition is inactive: 12.3%.
Take `CP(=O)(Nc1cccc(Br)c1)Oc1ccccc1` (configuration not stated): the activity change, negative = inhibition was inactive: 1.19%.
For `COc1ccccc1OP(C)(=O)Nc1cccc(Br)c1` (configuration not stated) the value was inactive: -1.7%.
For `CCOC(=O)c1ccc(NP(C)(=O)Oc2cc(C)cc(C)c2)cc1` (configuration not stated) the value was inactive: 14.7%.
The same measure for `Cc1cc(C)cc(OP(C)(=O)Nc2ccc(C)cc2C)c1` (configuration not stated): inactive: -12.2%; for `O=[N+]([O-])OCC(CO[N+](=O)[O-])(CO[N+](=O)[O-])CO[N+](=O)[O-]`: inactive: 13.7%; for `Cc1ccc([N+](=O)[O-])cc1[N+](=O)[O-]`: inactive: 1.83%.
For `O=[N+]([O-])c1cccc([N+](=O)[O-])c1`, the activity change, negative = inhibition is inactive: 6.72%.
On to `CN1CCCCC1COC(=O)C1(O)c2ccccc2CCc2ccccc21` (configuration not stated), for which the activity change, negative = inhibition was inactive: -11.2%.
For `COc1ccccc1OP(C)(=O)Nc1c(C)cccc1C` (configuration not stated) the value was inactive: 7.01%; for `CCCOc1ccc(NP(C)(=O)Oc2ccc(Cl)cc2)cc1` (configuration not stated), inactive: -10.4%.
In the case of `CP(=O)(Nc1ccc(SC(F)(F)F)cc1)Oc1ccccc1` (configuration not stated), the activity change, negative = inhibition is inactive: -12%.
The same measure for `CC1=C2N=C(C=C3N=C(C(C)=C4[N-][C@@](C)([C@@H]5N=C1[C@](C)(CCC(=O)NC[C@@H](C)OP(=O)([O-])O[C@H]1[C@@H](O)[C@@H](n6cnc7cc(C)c(C)cc76)O[C@@H]1CO)[C@H]5CC(N)=O)[C@@](C)(CC(N)=O)[C@@H]4CCC(N)=O)[C@@](C)(CC(N)=O)[C@@H]3CCC(N)=O)C(C)(C)[C@@H]2CCC(N)=O.[C-]#N.[Co+3]`: inactive: -8.48%; for `O=[N+]([O-])c1cc([N+](=O)[O-])c(Nc2nnnn2CCO)c([N+](=O)[O-])c1`: inactive: -12.9%; for `Cc1nc2ccc3ccccc3c2s1.O=[N+]([O-])c1cc([N+](=O)[O-])c(O)c([N+](=O)[O-])c1`: inactive: 0.901% [at 2.35 µM].
For `O=[N+]([O-])c1cc([N+](=O)[O-])c(-n2nnc3ccccc32)c([N+](=O)[O-])c1` the value was inactive: -3.92%; for `CC(C)N(CCCl)C(C)C`, inactive: -2.98%; for `CP(=O)(Nc1ccc2c(c1)OCCO2)Oc1ccccc1` (configuration not stated), inactive: 0.0407%.
For `Cc1ccccc1NP(C)(=O)Nc1ccccc1C` the value was inactive: 4.07%; for `CCN(CCCl)Cc1ccccc1C`, inactive: 27.8%.
With `[NH4+].[O-][Cl+3]([O-])([O-])[O-]`, the activity change, negative = inhibition is inactive: 7.09%.
The same measure for `CP(=O)(Nc1ccc(SC(F)(F)F)cc1)Oc1ccc(F)cc1` (configuration not stated): inactive: -5.87%.
For `CCOP(C)(=S)SCC(=O)NC(C)(CC)C(=O)O` (configuration not stated) the value was inactive: 1.91%; for `CCOP(=O)(CC)OCC`, inactive: -5.72%.
For `Cc1c([N+](=O)[O-])cccc1[N+](=O)[O-]` the value was inactive: 8.73%.
Consider `Cc1ccc([N+](=O)[O-])c([N+](=O)[O-])c1`, for which the activity change, negative = inhibition was inactive: -1.8%.
The same measure for `Cc1cc(-c2cccc3ccccc23)c(C)cn1.O=[N+]([O-])c1cc([N+](=O)[O-])c(O)c([N+](=O)[O-])c1`: inactive: -13.4%.
For `COc1ccc(OP(C)(=O)Nc2cccc(Br)c2)cc1` (configuration not stated) the value was inactive: 1.88%; for `CN(C)CCOC(=O)C(O)(c1ccccc1)C1CCCCC1` (configuration not stated), inactive: -4.15%; for `COc1ccc(NP(C)(=O)Oc2ccccc2OC)cc1` (configuration not stated), inactive: -0.289%.
For `CCN(CC)CCCOC(=O)C(O)(c1ccccc1)C1CCCCC1` (configuration not stated) the value was inactive: -0.934%.
Regarding `CP(=O)(Nc1ccccc1)Oc1ccc(F)cc1` (configuration not stated), the activity change, negative = inhibition was inactive: -7.81%.
The same measure for `CCCCCOc1ccc(NP(C)(=O)Oc2ccc(Cl)cc2Cl)cc1` (configuration not stated): inactive: -11%; for `CCC(C)(OO)OOC(C)(CC)OO` (configuration not stated): inactive: 10.6%.
The same measure for `Cc1cccc([N+](=O)[O-])c1[N+](=O)[O-]`: inactive: 1.85%.
